Results as given in PubChem BioAssay AID624417 (National Center for Advancing Translational Sciences (NCATS), 2012).
The entries are a selection whose mix differs from that of the whole data set. Records with an inconclusive call do not appear. The source made the active and inactive calls. Calls come from the whole dose curve; as a rule, active = well fitted inhibition curve with a large enough effect; inconclusive = small, poorly fitted or top-dose-only effect; inactive = no such curve, though single readings can be large or run the other way.

Protein sequences, listed by entry. Tags and fused reporters are not part of them.
UniProt P43220, whole entry: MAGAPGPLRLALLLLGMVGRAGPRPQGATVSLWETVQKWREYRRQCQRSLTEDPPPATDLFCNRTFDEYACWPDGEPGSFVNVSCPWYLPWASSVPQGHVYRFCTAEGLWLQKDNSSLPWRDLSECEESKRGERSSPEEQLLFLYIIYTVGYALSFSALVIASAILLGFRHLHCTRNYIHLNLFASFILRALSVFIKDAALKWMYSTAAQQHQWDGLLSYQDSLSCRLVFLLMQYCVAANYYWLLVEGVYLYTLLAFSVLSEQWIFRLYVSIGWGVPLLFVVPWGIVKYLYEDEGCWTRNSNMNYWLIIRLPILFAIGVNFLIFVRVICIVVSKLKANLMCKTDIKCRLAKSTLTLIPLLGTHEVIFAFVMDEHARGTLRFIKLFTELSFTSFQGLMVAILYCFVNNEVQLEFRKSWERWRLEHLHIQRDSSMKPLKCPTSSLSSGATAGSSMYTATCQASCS

What follows are compounds tested against Glucagon-like peptide 1 receptor (Homo sapiens) (UniProt P43220) (assay: qHTS of GLP-1 Receptor Inverse Agonists (Inhibition Mode)). Settings: HEK293 GLP-1R CRE-luciferase, luminescence, 24 h, GLP-1R form is constitutively active; series mostly up to 38.3 µM; activity change, negative = inhibition: at the top concentration.
% is set by controls: 0 for no effect and ±100 for the full control effect.
Note: nearly all actives have a fitted effect of over 55% in size.

| SMILES | activity change, negative = inhibition |
| --- | --- |
| O=C(NCC1(N2CCOCC2)CCCCC1)c1ccc([N+](=O)[O-])cc1 | inactive: -2.01% |
| N#Cc1ccc(C(=O)NCC2(N3CCCCC3)CCCCC2)cc1 | inactive: -0.0273% |
| O=C(NCC1(N2CCOCC2)CCCCC1)c1ccccc1[N+](=O)[O-] | inactive: 7.82% |
| CCOC(=O)C(CC)C1=NC(C)(C)Cc2ccccc21.O=[N+]([O-])c1cc([N+](=O)[O-])c(O)c([N+](=O)[O-])c1 (stereo not given) | inactive: -13.9% |
| O=C(NCC1(N2CCOCC2)CCCCC1)c1ccccc1 | inactive: -5.28% |
| Cc1cc(N(CCCl)CCCl)ccc1C=O | inactive: -55.1% |
| O=c1[nH]c2ccccc2n1C1CCN(C(c2ccccc2)c2nnnn2C2CCCC2)CC1 (stereo not given) | inactive: -22.8% |
| c1ccc(CN2CCC(Nc3ccccc3)CC2)cc1 | inactive: -15.4% |
| CN(C)C1(CNC(=O)c2cccc(C#N)c2)CCCCC1 | inactive: -13.2% |
| CCCCn1nnnc1C(c1ccccc1)N1CCC(n2c(=O)[nH]c3ccccc32)CC1 (stereo not given) | inactive: -34.5% |
| O=c1[nH]c2ccccc2n1C1CCN(C(c2ccnc3ccccc23)c2nnnn2C2CCCC2)CC1 (stereo not given) | inactive: -11.7% |
| COc1ccc(C(=O)NCC2(N3CCOCC3)CCCCC2)cc1OC | inactive: 5.82% |
| N/C(=N\O)c1c(N)no[n+]1[O-] | inactive: -4.44% |
| CCOC(=O)N1CCC(Nc2ccc(C)cc2)CC1 | inactive: 9.06% |
| COc1cccc(C(c2nnnn2C(C)(C)C)N2CCC(n3c(=O)[nH]c4ccccc43)CC2)c1OC (stereo not given) | inactive: -14.9% |
| O=C(O)c1cccc(Nc2c([N+](=O)[O-])cc([N+](=O)[O-])cc2[N+](=O)[O-])c1 | inactive: 9.44% |
| CCOc1ncccc1C(=O)NCC1(N2CCOCC2)CCCCC1 | inactive: 2.98% |
| O=C(O)C1(Nc2ccccc2)CCN(Cc2ccccc2)CC1 | inactive: 2.53% |
| NN(c1ccccc1)C1CCN(CCc2ccccc2)CC1 | inactive: -2.76% |
| CCC(CO)(C(=O)OC1CN2CCC1CC2)c1ccccc1 (stereo not given) | inactive: -19.2% |
| COc1cc(OC)cc(C(=O)NCC2(N3CCOCC3)CCCCC2)c1 | inactive: -0.292% |
| COc1cc(C(=O)NCC2(N3CCOCC3)CCCCC2)cc(OC)c1OC | inactive: -1.42% |
| CN1CCC(Nc2ccc(Cl)cc2)CC1 | inactive: -15% |
| COc1cc(OC)cc(C(=O)NCC2(N3CCCCC3)CCCCC2)c1 | inactive: -27.2% |
| O=c1[nH]c2ccccc2n1C1CCN(C(c2ccnc3ccccc23)c2nnnn2C2CCCCC2)CC1 (stereo not given) | inactive: 8.09% |
| CCC(c1nnnn1C1CCCCC1)N1CCC(n2c(=O)[nH]c3ccccc32)CC1 (stereo not given) | inactive: 19.2% |
| CC(=O)N(c1ccccc1)C1CCNCC1 | inactive: 2.2% |
| Cc1ccc(NC2(C#N)CCN(Cc3ccccc3)CC2)cc1 | inactive: 6.31% |
| Fc1ccccc1NC1CCN(Cc2ccccc2)CC1 | inactive: -13.4% |
| Cc1ccc(Nc2c([N+](=O)[O-])cc([N+](=O)[O-])cc2[N+](=O)[O-])cc1 | inactive: 21.9% |
